Results as given in PMC12691669, “Inhibitors of the 20S proteasome β5 subunit as potent and selective agents against Trichomonas vaginalis” (Antimicrobial Agents and Chemotherapy, 2025).

How the values were obtained:
Format in all cases: biochemical
[1] = molecular target: Human c20S proteasome β1 subunit (Homo sapiens, UniProt P28072+Q99436); test: In vitro proteasome assay, z-LLE-amc substrate; conditions: purified human c20S with PA28α, mean ± SD
[2] = molecular target: Human c20S proteasome β2 subunit (Homo sapiens, UniProt P49720+Q99436); test: In vitro proteasome assay, z-VLR-amc substrate; conditions: read-out: Human c20S proteasome inhibition of β2 subunit (IC50); purified human c20S with PA28α, mean ± SD
[3] = molecular target: Human c20S proteasome β5 subunit (Homo sapiens, UniProt P20618+P28074); test: In vitro proteasome assay, suc-LLVY-amc substrate; conditions: read-out: Human c20S proteasome inhibition of β5 subunit (IC50); purified human c20S with PA28α, mean ± SD

SMILES	Human c20S proteasome inhibition of β1 subunit (IC50) [1]	IC50 [2]	IC50 [3]
CCCCCC(=O)N[C@@H](Cc1cccnc1)C(=O)N[C@@H](CCCC)C(=O)N[C@@H](Cc1ccccc1)C(=O)[C@@]1(C)CO1	No inhibition	3950 nM	13.7 nM
COc1ccc(C[C@@H](C(=O)N[C@@H](CC(=O)N2CCCC2)C(=O)N[C@@H](Cc2ccc(F)cc2)C(=O)N[C@@H](Cc2ccc(F)cc2F)C(=O)[C@@]2(C)CO2)N2CCCC2=O)cc1	No inhibition	4080 nM	10.8 nM
CCCC[C@H](NC(=O)[C@H](CC(=O)N1CCCC1)NC(=O)[C@H](Cc1ccc(OC)cc1)N1CCCC1=O)C(=O)N[C@@H](Cc1ccc(F)cc1F)C(=O)[C@@]1(C)CO1 [compound 45]	No inhibition	1130 nM	4.73 nM
